Laboratory results as given in PubChem BioAssay AID651711 (Broad Institute, 2012).
Only a part is listed here, and it is no random draw. The source made the active and inactive calls.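 How the source made its calls: active means mean replicate inhibition above about 25%, with every replicate also reaching it (limit read from the data, passing the limit was not always enough); inconclusive means only one of those two criteria met; inactive means neither criterion met.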

Amino acid sequences for entries named in this document (tags omitted).
UniProt Q15084, whole entry: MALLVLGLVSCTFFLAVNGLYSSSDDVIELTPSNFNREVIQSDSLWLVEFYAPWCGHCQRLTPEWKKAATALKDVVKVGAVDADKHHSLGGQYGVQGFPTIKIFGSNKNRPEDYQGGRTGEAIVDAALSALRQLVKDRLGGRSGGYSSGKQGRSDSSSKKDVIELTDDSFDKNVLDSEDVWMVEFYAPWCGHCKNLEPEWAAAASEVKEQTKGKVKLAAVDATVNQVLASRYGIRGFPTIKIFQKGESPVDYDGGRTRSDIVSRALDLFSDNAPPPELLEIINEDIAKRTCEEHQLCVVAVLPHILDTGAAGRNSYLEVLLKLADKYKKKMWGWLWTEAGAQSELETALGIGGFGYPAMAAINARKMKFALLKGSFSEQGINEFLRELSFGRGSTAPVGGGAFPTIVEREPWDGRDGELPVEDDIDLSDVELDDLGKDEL

Target: Protein disulfide-isomerase A6 (Homo sapiens) (UniProt Q15084)
Assay: inhibitors of ERp5-driven insulin aggregation, primary screen, biochemical, turbidity, absorbance 650 nm, single point (AID 651711)
Conditions: 90 min, at 9.99 µM, stronger effect = higher value

Question: Which inhibition does the source give for `N#Cc1ccc(C(=O)NCC2(N3CCCCC3)CCCCC2)cc1` here?
Answer: inactive: 2.59%

Question: For `CC(C)(C)OC(=O)N1CCC(N(C(=O)c2ccccc2)c2ccc(Cl)cc2)CC1`, which inhibition is on record?
Answer: inactive: 0.492%

Question: For `CN(C)C1(CNC(=O)c2cccc(C#N)c2)CCCCC1`, which inhibition is on record?
Answer: inactive: -0.887%

Question: For `C/C(N)=N\P(=O)(Oc1ccccc1)Oc1ccccc1`, which inhibition is on record?
Answer: inactive: 8.5%

Question: Which inhibition does the source give for `Cc1cc(N(CCCl)CCCl)ccc1C=O` here?
Answer: inactive: 6.45%

Question: How did the inhibition turn out when `CCCN1CCC(Nc2cc(OC)cc(OC)c2)CC1` was run?
Answer: inactive: 3.12%

Question: With `O=c1[nH]c2ccccc2n1C1CCN(C(c2ccccc2)c2nnnn2C2CCCC2)CC1` (stereo not given) as the compound, how does the inhibition read?
Answer: inactive: 1.95%

Question: `CC(C)(C)n1nnnc1C(c1cccc2ccccc12)N1CCC(n2c(=O)[nH]c3ccccc32)CC1` (stereo not given) was tested. Which inhibition did it give?
Answer: inactive: -4.39%

Question: `CCCCn1nnnc1C(c1ccccc1)N1CCC(n2c(=O)[nH]c3ccccc32)CC1` (stereo not given) was tested. Which inhibition did it give?
Answer: inactive: 1.77%

Question: `COc1cc(C(=O)NCC2(N3CCOCC3)CCCCC2)cc(OC)c1C` was tested. Which inhibition did it give?
Answer: inactive: 1.01%

Question: Which inhibition does the source give for `O=C(NCC1(N2CCOCC2)CCCCC1)c1cc(Br)ccc1Cl` here?
Answer: inactive: 6.43%

Question: For `O=c1[nH]c2ccccc2n1C1CCN(C(c2cccs2)c2nnnn2C2CCCCC2)CC1` (stereo not given), which inhibition is on record?
Answer: inactive: 9.33%

Question: How did the inhibition turn out when `COc1ccc(C(=O)NCC2(N3CCOCC3)CCCCC2)cc1OC` was run?
Answer: inactive: 0.193%

Question: With `O=c1[nH]c2ccccc2n1C1CCN(C(c2ccnc3ccccc23)c2nnnn2C2CCCC2)CC1` (stereo not given) as the compound, how does the inhibition read?
Answer: inactive: 2.8%

Question: For `COc1cccc(C(c2nnnn2C(C)(C)C)N2CCC(n3c(=O)[nH]c4ccccc43)CC2)c1OC` (stereo not given), which inhibition is on record?
Answer: inactive: 9.18%

Question: Which inhibition does the source give for `CCOC(=O)N1CCC(Nc2ccc(C)cc2)CC1` here?
Answer: inactive: 3.07%

Question: For `O=c1[nH]c2ccccc2n1C1CCN(C(c2cccs2)c2nnnn2C2CCCC2)CC1` (stereo not given), which inhibition is on record?
Answer: inactive: 5.32%

Question: How did the inhibition turn out when `CCCCn1nnnc1C(c1cccc(OC)c1OC)N1CCC(n2c(=O)[nH]c3ccccc32)CC1` (stereo not given) was run?
Answer: inactive: -5.52%

Question: `CN1CCC(Nc2ccc(F)c(Cl)c2)CC1` was tested. Which inhibition did it give?
Answer: inactive: 1.1%

Question: `CC(C)(C)OC(=O)N1CCC(Nc2ccccc2)CC1` was tested. Which inhibition did it give?
Answer: inactive: -7.03%

Question: With `O=C(O)C1(Nc2ccccc2)CCN(Cc2ccccc2)CC1` as the compound, how does the inhibition read?
Answer: inactive: 9.89%

Question: Which inhibition does the source give for `NN(c1ccccc1)C1CCN(CCc2ccccc2)CC1` here?
Answer: inactive: -2.81%

Question: With `CCCOc1ccc(C(=O)NCC2(N(C)C)CCCCC2)cc1` as the compound, how does the inhibition read?
Answer: inactive: -0.8%

Question: `O=c1[nH]c2ccccc2n1C1CCN(C(c2cc3ccccc3o2)c2nnnn2C2CCCC2)CC1` (stereo not given) was tested. Which inhibition did it give?
Answer: inactive: 8.64%

Question: `COc1cccc(C(c2nnnn2C2CCCC2)N2CCC(n3c(=O)[nH]c4ccccc43)CC2)c1OC` (stereo not given) was tested. Which inhibition did it give?
Answer: inactive: -3.62%

Question: `COc1cc(OC)cc(C(=O)NCC2(N3CCOCC3)CCCCC2)c1` was tested. Which inhibition did it give?
Answer: inactive: -7.91%

Question: How did the inhibition turn out when `COc1cccc(C(=O)N(c2cc(C)cc(C)c2)C2CCN(C(=O)OC(C)(C)C)CC2)c1` was run?
Answer: inactive: -4.07%

Question: With `CN1CCC(Nc2ccc(Cl)cc2)CC1` as the compound, how does the inhibition read?
Answer: inactive: 3.86%

Question: Which inhibition does the source give for `CC(=O)N(c1ccccc1)C1CCNCC1` here?
Answer: inactive: 2.88%

Question: Which inhibition does the source give for `COc1cccc(C(c2nnnn2C2CCCCC2)N2CCC(n3c(=O)[nH]c4ccccc43)CC2)c1OC` (stereo not given) here?
Answer: inactive: 3.42%

Question: How did the inhibition turn out when `CCC(c1nnnn1C1CCCCC1)N1CCC(n2c(=O)[nH]c3ccccc32)CC1` (stereo not given) was run?
Answer: inactive: 3.92%

Question: Which inhibition does the source give for `O=c1[nH]c2ccccc2n1C1CCN(C(c2ccnc3ccccc23)c2nnnn2C2CCCCC2)CC1` (stereo not given) here?
Answer: inactive: 5.3%

Question: `COc1cc(OC)cc(C(=O)NCC2(N3CCCCC3)CCCCC2)c1` was tested. Which inhibition did it give?
Answer: inactive: -0.098%

Question: Which inhibition does the source give for `Cc1ccc(C(=O)NCC2(N3CCCCC3)CCCCC2)o1` here?
Answer: inactive: -1.54%

Question: For `Fc1ccccc1NC1CCN(Cc2ccccc2)CC1`, which inhibition is on record?
Answer: inactive: -1.48%

Question: `Cc1ccc(NC2(C#N)CCN(Cc3ccccc3)CC2)cc1` was tested. Which inhibition did it give?
Answer: inactive: -1.32%

Question: Which inhibition does the source give for `Cc1ccccc1NC1(C#N)CCN(Cc2ccccc2)CC1` here?
Answer: inactive: -8.06%

Question: For `CC(C)(C)n1nnnc1C(c1ccnc2ccccc12)N1CCC(n2c(=O)[nH]c3ccccc32)CC1` (stereo not given), which inhibition is on record?
Answer: inactive: -3.39%

Question: How did the inhibition turn out when `COc1ccc(C(c2nnnn2C2CCCCC2)N2CCC(n3c(=O)[nH]c4ccccc43)CC2)cc1` (stereo not given) was run?
Answer: inactive: 2.49%

Question: `O=C(NCC1(N2CCCCC2)CCCCC1)c1ccco1` was tested. Which inhibition did it give?
Answer: inactive: 3.12%

Question: With `Cn1c(=O)[nH]cc(N(CCCl)CCCl)c1=O` as the compound, how does the inhibition read?
Answer: inactive: -11%

Question: For `CN(C)c1ccc(C(=O)NCC2(N3CCCCC3)CCCCC2)cc1`, which inhibition is on record?
Answer: inactive: -2.86%

Question: How did the inhibition turn out when `CC(C)(C)n1nnnc1C(c1ccccc1)N1CCC(n2c(=O)[nH]c3ccccc32)CC1` (stereo not given) was run?
Answer: inactive: -1.54%

Question: With `O=C1CCN(Cc2ccccc2)CC1` as the compound, how does the inhibition read?
Answer: inactive: -1.02%

Question: Which inhibition does the source give for `CCOc1ccc(C)cc1CN(CCCl)CCCl` here?
Answer: inactive: 2.64%

Question: With `O=C(NCC1(N2CCCCC2)CCCCC1)c1ccc(F)cc1` as the compound, how does the inhibition read?
Answer: inactive: 1.91%

Question: With `O=P1(N(CCCl)CCCl)SCCCS1` as the compound, how does the inhibition read?
Answer: inactive: 2.46%

Question: With `CCCCn1nnnc1C(c1cc2ccccc2o1)N1CCC(n2c(=O)[nH]c3ccccc32)CC1` (stereo not given) as the compound, how does the inhibition read?
Answer: inactive: 3.04%

Question: `CCCCOc1ccc(C(=O)NCC2(N3CCOCC3)CCCCC2)cc1` was tested. Which inhibition did it give?
Answer: inactive: -2.52%

Question: For `CCOC(=O)N1CCC(Nc2ccc(F)cc2)CC1`, which inhibition is on record?
Answer: inactive: 1.89%

Question: How did the inhibition turn out when `O=c1[nH]c2ccccc2n1C1CCN(C(c2ccccc2)c2nnnn2C2CCCCC2)CC1` (stereo not given) was run?
Answer: inactive: -0.55%

Question: How did the inhibition turn out when `COc1cc(C(=O)NCC2(N(C)C)CCCCC2)ccc1OC(F)F` was run?
Answer: inactive: 1.13%

Question: Which inhibition does the source give for `CCOC(=O)N1CCC(Nc2cccc(C)c2)CC1` here?
Answer: inactive: -0.717%

Question: For `O=c1[nH]c2ccccc2n1C1CCN(C(c2cccc3ccccc23)c2nnnn2C2CCCC2)CC1` (stereo not given), which inhibition is on record?
Answer: inactive: -1.62%

Question: For `COc1ccc(C(=O)NCC2(N3CCCCC3)CCCCC2)cc1`, which inhibition is on record?
Answer: inactive: 6.68%

Question: `CCC(c1nnnn1C1CCCC1)N1CCC(n2c(=O)[nH]c3ccccc32)CC1` (stereo not given) was tested. Which inhibition did it give?
Answer: inactive: 6.27%

Question: With `CC(C)(C)OC(=O)N1CCC(N(C(=O)c2ccccc2)c2ccc(F)cc2)CC1` as the compound, how does the inhibition read?
Answer: inactive: 1.15%

Question: `COc1ccc(C(=O)NCC2(N3CCCCC3)CCCCC2)c(OC)c1OC` was tested. Which inhibition did it give?
Answer: inactive: -1.65%

Question: `O=C(NCC1(N2CCCCC2)CCCCC1)c1ccc(=O)[nH]c1` was tested. Which inhibition did it give?
Answer: inactive: -0.041%

Question: `CCCCn1nnnc1C(c1cccs1)N1CCC(n2c(=O)[nH]c3ccccc32)CC1` (stereo not given) was tested. Which inhibition did it give?
Answer: inactive: 7.76%
